In patent publication US11325982B2, “Biparatopic and multiparatopic antibodies with common light chain and method of use” (XUANZHU BIOPHARMACEUTICAL CO., LTD., priority 2017, dated 2022):

Legend:
[1] = system: BT474 Herceptin-drug resistant cells (BT474-HerDR); experiment: Inhibition of proliferation of Herceptin-resistant BT474 cells (CellTiterGlo viability); assay type: cell-based; details: 72 hours, FIG. 13
Description: (§1) 24 hours later, 10 μl of antibody construct diluted to various concentrations with the medium were added to the cell culture. After the cells were cultured for additional 72 hours, cell viability was determined by CellTiterGlo (Promega). The wells without addition of antibody were set as 100% cell viability and Docetaxel was used as a positive control for cytotoxicity. The data were then fitted into 4-parameter sigmoidal curve to generate IC50. The samples were done in triplicate.

NCI-N87 cells = experiment: Inhibition of proliferation of NCI-N87 cells (CCK-8); assay type: cell-based; details: 72 hours, FIG. 14
Description: The growth curve of NCI-N87 was initially determined by plating cells at various densities in 96-well tissue culture plates. Cells were gown in RPMI-1640 medium supplemented with 10% fetal bovine serum (FBS).
as §1, with “hours, the” for “hours,”, “proliferation rates were” for “viability was”, “adding 10 μl of CCK-8 reagent (Sigma). After 3 hour of incubation without light, the plates were read at OD450 nm.” for “CellTiterGlo (Promega).”

## trastuzumab [T22, reference compound]
[1]
  effect on cell viability (cytotoxicity): had no effect
NCI-N87 cells
  growth inhibition: minimal effect
